Laboratory results reported in PMC9885860 (Pharmacological research, 2021).

Chains of the proteins cited; added tags and fusions are not shown.
UniProt P08913, whole entry: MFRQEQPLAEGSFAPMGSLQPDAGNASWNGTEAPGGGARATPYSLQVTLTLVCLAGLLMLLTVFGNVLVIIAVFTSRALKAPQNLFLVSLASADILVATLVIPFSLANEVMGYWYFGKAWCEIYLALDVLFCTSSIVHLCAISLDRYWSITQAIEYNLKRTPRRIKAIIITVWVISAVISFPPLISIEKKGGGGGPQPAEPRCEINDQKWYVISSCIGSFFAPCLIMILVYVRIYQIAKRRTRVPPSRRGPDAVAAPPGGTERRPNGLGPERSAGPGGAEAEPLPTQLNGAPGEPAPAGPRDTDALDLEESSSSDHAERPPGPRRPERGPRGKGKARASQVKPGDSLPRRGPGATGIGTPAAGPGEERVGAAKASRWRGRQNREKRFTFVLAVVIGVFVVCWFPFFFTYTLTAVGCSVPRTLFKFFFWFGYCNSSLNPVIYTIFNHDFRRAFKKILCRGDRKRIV
UniProt P21917, whole entry: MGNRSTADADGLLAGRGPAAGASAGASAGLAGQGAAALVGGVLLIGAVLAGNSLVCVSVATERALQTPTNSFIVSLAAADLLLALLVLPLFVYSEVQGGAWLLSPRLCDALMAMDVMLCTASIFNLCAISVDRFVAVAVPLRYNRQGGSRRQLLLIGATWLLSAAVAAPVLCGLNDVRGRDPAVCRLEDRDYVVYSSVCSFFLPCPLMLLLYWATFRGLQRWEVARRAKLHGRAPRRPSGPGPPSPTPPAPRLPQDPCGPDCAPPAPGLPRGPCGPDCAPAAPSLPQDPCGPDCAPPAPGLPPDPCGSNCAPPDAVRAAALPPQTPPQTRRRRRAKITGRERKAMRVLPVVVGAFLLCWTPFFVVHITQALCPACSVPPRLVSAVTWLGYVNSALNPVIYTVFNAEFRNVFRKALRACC

Legend:
[1] = molecular target: α2AR-D4.4R (Homo sapiens, UniProt P08913+P21917); assay: CODA-RET Gαi1 activation, α2AR-D4.4R heteromer; type: cell-based; settings: cells pretreated with antagonist
[2] = molecular target: α2AR-D4.7R (Homo sapiens, UniProt P08913+P21917); assay: CODA-RET Gαi1 activation, α2AR-D4.7R heteromer; type: cell-based; settings: cells pretreated with antagonist

SMILES: Cl.Cl.Cl.Clc1ccc(N2CCN(Cc3c[nH]c4ncccc34)CC2)cc1 [L745,870, L-745,870 trihydrochloride]
- antagonist effect on NE- and DA-induced Gαi1 activation [1]: decreased significantly the effect of DA and NE
- antagonist effect on NE- and DA-induced Gαi1 activation [2]: lack of antagonistic effects
